The values that follow are results of earlier work, collected in patent US7179800B2 (priority 2002, dated 2007).

The chains behind the UniProt entries cited, without tags or fusion partners.
UniProt P34972, whole entry: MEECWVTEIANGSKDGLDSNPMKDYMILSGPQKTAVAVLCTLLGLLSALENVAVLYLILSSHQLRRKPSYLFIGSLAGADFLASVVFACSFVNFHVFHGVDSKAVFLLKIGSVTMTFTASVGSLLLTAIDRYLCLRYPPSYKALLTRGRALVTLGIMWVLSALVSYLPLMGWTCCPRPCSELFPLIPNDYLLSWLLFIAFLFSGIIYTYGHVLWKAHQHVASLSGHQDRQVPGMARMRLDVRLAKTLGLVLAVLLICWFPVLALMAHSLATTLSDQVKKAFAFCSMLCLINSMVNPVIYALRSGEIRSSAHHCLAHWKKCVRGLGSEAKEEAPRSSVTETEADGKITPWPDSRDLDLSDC

The series deals with T1, CB2 receptor (Homo sapiens, UniProt P34972).
T1 construct: expressed in transfected cells; host or cells: CHO cells, G418-selected transfected line
The note with it: values from Hanu et al 1999; ligand [3H]HU-243; cited from earlier work.

What is called Ki is the equilibrium dissociation constant of an inhibitor or competing ligand from its target. Regarding `CCCCCCC(C)(C)c1cc(OC)c([C@@H]2C=C(CO)[C@@H]3C[C@H]2C3(C)C)c(OC)c1` [HU-308], the inhibitory constant (Ki) was 23 ± 4 nM.
